Laboratory results: US20250185666A1, “Root-Targeted Delivery of Agrochemicals using Natural Microbial Carriers” (priority 2023, published 2025)

Tested on: UC-1 cultures
Assay: Screen of candidate formulations for operational toxicity to UC-1 cultures
Settings: concentrated formulation

Spinosad was tested, and the “Operational toxicity to UC-1 cultures (live protists remain viable and actively moving)” value was “satisfied all criteria”.
